Results reported in patent US20130225591A1, “IMIDOTHIAZOLE KINASE INHIBITORS” (priority 2009, published 2013).

Chains of the proteins cited; added tags and fusions are not shown. Residues count along the entry.
UniProt Q00535, whole entry: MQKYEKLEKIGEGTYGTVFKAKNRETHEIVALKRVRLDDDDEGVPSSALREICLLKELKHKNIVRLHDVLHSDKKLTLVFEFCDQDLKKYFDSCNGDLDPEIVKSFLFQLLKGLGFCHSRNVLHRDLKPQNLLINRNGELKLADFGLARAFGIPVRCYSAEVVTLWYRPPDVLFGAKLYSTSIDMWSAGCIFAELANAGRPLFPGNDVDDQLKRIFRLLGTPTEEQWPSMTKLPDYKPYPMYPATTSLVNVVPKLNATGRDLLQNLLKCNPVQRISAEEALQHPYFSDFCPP
UniProt Q15078, 99-307 partner limits assumed: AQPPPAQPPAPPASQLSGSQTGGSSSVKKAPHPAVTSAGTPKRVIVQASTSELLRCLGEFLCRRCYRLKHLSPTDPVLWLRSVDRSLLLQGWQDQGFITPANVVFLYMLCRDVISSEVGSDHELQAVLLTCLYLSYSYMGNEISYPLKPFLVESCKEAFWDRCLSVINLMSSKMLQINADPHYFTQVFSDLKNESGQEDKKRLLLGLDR

Target: CDK5-p25 kinase (Homo sapiens, UniProt Q00535)
Assay: CDK5-p25 kinase enzymatic assay
Conditions: read-out: IC50 potency, CDK5-p25 kinase enzymatic assay, <50 nM, 5 uM ATP, 0.3 nM CDK5-p25
Protocol: CDK5-p25 kinase (Invitrogen PV4677) enzymatic activity was measured using electrophoretic separation and fluorescent detection to monitor phosphorylation of a fluorescently labeled histone H1-derived peptide substrate, FL29 (5-FAM-GGGPATPKKAKKL-CONH2, Caliper #760429)
First, 0.25 uL of serially diluted compound in DMSO at 100× concentration was transferred into each well of a 384-well polystyrene assay plate. To this was added 15 uL of a 1.67× enzyme solution (500 pM enzyme, 1 mM DTT (Sigma D9779), 1× reconstitution buffer with protease inhibitor (Caliper #700329 proprietary formulation)), followed by centrifugation for 1 min at 1000 rpm, and incubation for 5-15 min at room temperature to allow binding of compound to enzyme. To initiate the reaction, 10 uL of substrate/ATP mix (245 mM Hepes pH 7.5, 0.003% Brij 35, 0.004% Tween, 12.75 uM ATP, 3.75 uM FL29 peptide) were added to each well, followed by centrifugation at 1000 rpm for 1 min. […]
After incubation, reactions were quenched by the addition of 45 uL Caliper termination solution (Caliper proprietary formula), followed by centrifugation at 1000 rpm for 1 min. Extent of reaction (percentage conversion of substrate to phosphorylated product) was then measured using the Caliper EZ II reader. […] The curve was analyzed using a four parameter logistical fit to calculate IC50 values.

IC50: < 50 nM
Compound: O=C(Cc1ccc(N2CCNC2=O)cc1)Nc1ncn2c(C(F)(F)F)csc12
